{"sequences": {"note": "Chains of the proteins cited; added tags and fusions are not shown. Residues count along the entry.", "UniProt H0W1Z3, 1-590": "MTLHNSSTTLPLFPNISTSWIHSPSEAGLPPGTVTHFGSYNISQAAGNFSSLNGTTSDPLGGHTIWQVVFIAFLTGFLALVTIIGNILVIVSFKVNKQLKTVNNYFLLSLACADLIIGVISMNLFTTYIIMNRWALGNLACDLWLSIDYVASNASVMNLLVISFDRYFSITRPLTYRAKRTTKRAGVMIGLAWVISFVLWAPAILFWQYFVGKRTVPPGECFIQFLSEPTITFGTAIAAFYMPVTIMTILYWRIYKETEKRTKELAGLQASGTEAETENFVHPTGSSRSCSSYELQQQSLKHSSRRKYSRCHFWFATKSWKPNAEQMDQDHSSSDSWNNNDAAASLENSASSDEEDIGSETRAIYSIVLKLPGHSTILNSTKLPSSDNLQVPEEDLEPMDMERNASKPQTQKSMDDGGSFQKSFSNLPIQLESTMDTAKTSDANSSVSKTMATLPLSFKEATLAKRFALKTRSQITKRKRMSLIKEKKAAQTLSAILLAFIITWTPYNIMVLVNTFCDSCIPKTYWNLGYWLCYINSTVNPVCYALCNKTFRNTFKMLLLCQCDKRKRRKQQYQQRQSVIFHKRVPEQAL"}, "source": "patent US5064850A", "about": "“Dihydro-3,3-diphenyl-5-(1H-pyrazol-1-ylmethyl-2(3H)-furanone and dihydro-5-((substituted-1H-pyrazol-1-yl)methyl)-3,3-diphenyl-2(3H)-furan one derivatives” (Marion Merrell Dow Inc., priority 1991, dated 1991)", "molecular_target": "T1, postsynaptic muscarinic cholinergic receptors on intestinal (ileal-longitudinal) smooth muscle (Cavia porcellus, UniProt H0W1Z3)", "T1 construct": "The longitudinal muscle, with the myenteric plexus attached, is separated from the underlying circular muscle; from tissue; host or cells: guinea pig ileum, longitudinal muscle strip with myenteric plexus attached", "experiment": "Antimuscarinic Test Protocol: antagonism of carbachol-induced contraction of ileum strips (Table 1)", "assay_type": "cell-based, guinea pig", "details": "carbachol as agonist, read-out: Anti-muscarinic Activity Kb", "protocol": "Antimuscarinic Test Protocol.\nMale albino guinea pigs are killed by decapitation or cervical dislocation. The cavity is opened and the small intestine is removed, with about 10 cm of the terminal ileum being discarded. The intestine is placed in a Petri dish that contains Tyrodes solution (137 mM NaCl, 2.78 mM KCl, 1.8 mM CaCl2.2H2 O, 1.1 mM MgCl2.6H2 O, 0.4 mM […], 11.8 mM NaHCO3, 5.6 mM dextrose) and cut into 3-4 cm segments. The segments are preferentially taken from the aboral end of the ileum. Each segment is carefully stretched onto a glass rod 6 mm in diameter and the remaining mesenteric tissue is cut away. The longitudinal muscle, with the myenteric plexus attached, is separated from the underlying circular muscle by gently stroking with a cotton-tipped applicator soaked in Tyrodes solution on a tangent away from the shallow longitudinal incisions made parallel to the mesenteric attachment. […]\nAppropriate volumes of carbachol solutions are cumulatively added to the 10 mL tissue baths to increase the concentration of carbachol in the bath step-by-step without washing out after each single dose. […] Antagonism of carbachol responses in the presence of antagonist is determined by repeating the cumulative addition procedure after the tissue has been exposed to the […] for 5 minutes. […]"}
{"smiles": "CN1[C@@H]2CC[C@H]1C[C@@H](OC(=O)C(CO)c1ccccc1)C2", "note": "(stereo partly shown) [Atropine, reference compound]", "values": [{"measurement": "Kb", "value": 1.7, "unit": "nM"}]}
